Assay results published in patent US20160199369A1, “Extruded Immediate Release Abuse Deterrent Pill” (priority 2013, published 2016).

Tests used:
[1] = relative solubility, yes/no; cited from earlier work
[2] = General solubility of exemplary components; assay type: physicochemical; details: 200 proof ethanol, filtered through 0.22 micrometer PTFE filter
Excerpt: The following table lists the relative solubility of exemplary components of a formulation. A number of different dyes are listed along with their solubility information taken from the various literature sources and tested experimentally (200 proof ethanol and filtered through a 0.22 micrometer PTFE filter).

O=S(=O)([O-])c1ccc(N=Nc2c(O)ccc3cc(S(=O)(=O)[O-])ccc23)cc1.[Na+].[Na+] [FD&C Yellow #6]
Yes: Alcohol Solubility (Literature) [1] | Water Solubility [1] | Alcohol Solubility (tested) [2]
